A selection: hits, their analogues and other compounds. The true share with any hit is near 3.7%.
Nrf2 block: Nrf2 pathway inhibition; Potency, µM (highest dose often 46 µM), without a hit: at the highest dose activity change, negative = inhibition, hits mostly inhibitors; 360,000 tested, 2.1% active; A549 ARE-Fluc reporter, luciferase luminescence, 18-24 h; AID 504444; also: potency is read from the fitted curve at half-maximal effect; % is scaled to controls: 0 for no effect and ±100 for the full control effect; nearly all actives have a fitted effect of over 60% in size
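Nrf2 activity is the BugLite luminescence, read 15 min after reagent at room temperature, following CellTiter-Fluor cytotoxicity readout (30 min, 37C). Compound titrations were applied for 18-24 h to 5000 A549 ARE_Fluc cells/well in 5% FBS OPTI-MEM.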
ClpP mod: qHTS Assay for Activators of ClpP | ATP-dependent Clp protease proteolytic subunit (Bacillus subtilis (strain 168)), P80244 | AID 651965, 2013 | 340,000 tested, 1.9% active | purified B. subtilis ClpP, FRET peptide cleavage, 20 min | Potency, µM (top dose mostly 57.5 µM), for inactives: top-dose activity change, negative = active; active = well fitted falling curve with a large enough effect; inconclusive = small, poorly fitted or top-dose-only effect; inactive = no such curve, though single readings can be large or run the other way; also: potency is read from the fitted curve at half-maximal effect; the source files actives as falling curves though it sought activators and does not explain the sign; nearly all actives have a fitted effect of over 65% in size
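Purified B. subtilis ClpP, 10 microg/mL final in Tris/HCl pH8 with KCl, BSA, glycerol and Tween-20, cleaved an Abz/nitrotyrosine-quenched decapeptide. Fluorescence (ex 320, em 430) was read at 0 and 20 min at room temperature. Delta was normalized to 5.8 microM ADEP and DMSO/no-enzyme controls.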
A549 tox: kills or reduces viability of A549 cells in Nrf2 counter-screen; A549 ARE-Fluc cells, CellTiter-Fluor viability, 18-24 h; Potency, µM (highest dose often 46 µM), for inactives: top-dose activity change, negative = cytotoxicity, hits mostly inhibitors; 390,000 tested, 0.16% active; AID 504648; also: potency is read from the fitted curve at half-maximal effect; % is scaled to controls: 0 for no effect and ±100 for the full control effect
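Cytotoxicity counterscreen: CellTiter-Fluor fluorescence was measured in A549 ARE_Fluc cells after 18-24 h of compound exposure in a concentration series. The subsequent BugLite luminescent read reports ARE-luciferase activity.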
IL2 activator: activators of IL-2; AID 652025; 360,000 tested, 0.065% active; IL-2 activation reporter assay, cell-based qHTS; stimulated with anti-CD3/CD4/CD28 beads; in transgenic mouse T cells; activation, % (series mostly up to about 46 µM); in the data active = activation above about 50%; inconclusive = mostly about 30% to 49%; also: 0% is about no effect
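Readout is EGFP and DsRed signal by fluorescent plate cytometry after 18 h at 37 degrees C. Transgenic mouse T cells (750/well) received compound for 60 min before bead stimulation (anti-CD3, anti-CD4, anti-CD28); memory T cells served as non-tolerant control.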
Nrf2 activator: activators of Nrf2 (ARE) signaling | AID 624171 | AREc32 ARE-luciferase reporter (MCF7-derived line), luminescence, 24 h | Potency, µM (doses to about 46.1 µM), for inactives: at the top dose activation, most hits filed as activators | 410,000 tested, 0.31% active; also: potency is read from the fitted curve at half-maximal effect; % of control where 0% means no effect; nearly all actives have a fitted effect of over 65% in size
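Steps: seed AREc32_Fluc cells (1000/well, 5% FBS OPTI-MEM); incubate overnight at 37 deg C; add 23 nL compound; incubate 24 hr; add Steady-Glo; hold 30 min RT; read luminescence.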
miR-21 FLuc: raises the signal of a miR-21 reporter; HeLa miR-21 FLuc reporter, luciferase, 48 h; Potency, µM (highest dose often 38.3 µM), for inactives: at the highest dose reporter change, positive = more light; 340,000 tested, under 10 active; active = well fitted rising curve with a large enough effect; inconclusive = small, poorly fitted or top-dose-only effect; inactive = no such curve, though single readings can be large or run the other way;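 also: % of control where 0% means no effect; miR-21 action dims this reporter so a rising signal means less miR-21 action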
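Luminescence from a firefly luciferase reporter carrying a miR-21 binding site downstream, stably expressed under a CMV promoter in HeLa cells that make miR-21 endogenously, reports miRNA modulation after 48 h compound exposure up to approximately 40uM final.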
Numbers without * were called inactive; ? = inconclusive; / = no result; [ ] = remark or other dose. Unless noted, calls follow the shape of the dose curve; as a rule, active = well fitted curve in the direction sought with a large enough effect; inconclusive = small, poorly fitted or top-dose-only effect, or another doubt; inactive = no such curve, though single readings can be large; an effect the other way counts as inactive or inconclusive.

Sequences of proteins named here, by UniProt entry; tags and fusion partners are left off.
ATP-dependent Clp protease proteolytic subunit (Bacillus subtilis (strain 168)), P80244, UniProt P80244, whole entry, looked up: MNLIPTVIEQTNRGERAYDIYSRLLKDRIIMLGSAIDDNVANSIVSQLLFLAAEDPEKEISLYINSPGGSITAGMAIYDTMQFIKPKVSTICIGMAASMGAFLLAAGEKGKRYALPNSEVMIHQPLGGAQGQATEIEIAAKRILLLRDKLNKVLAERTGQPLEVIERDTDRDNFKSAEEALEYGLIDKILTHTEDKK

(1) C=C1C(=O)O[C@H]2[C@H]1[C@H](OC(=O)CC(=O)O[C@@H]1C[C@@H](C)[C@@H]3C=CC(=O)[C@@]3(C)[C@H]3OC(=O)C(=C)[C@H]13)C[C@@H](C)[C@H]1C=CC(=O)[C@]12C
(2) C=C1C(=O)OC2CC(C)C3C=CC(=O)C3(C)C(O)C12 (stereo not given)
(3) C=C1C(=O)O[C@H]2C[C@@H](C)[C@@H]3C=CC(=O)[C@@]3(C)C[C@H]12
(4) CCCc1cc(N2CCN(c3cccc(C)c3C)CC2)n2cnnc2n1
(5) CC(=O)O[C@H]1[C@H]2O[C@]23[C@@H]2CC[C@]4(O)C[C@@H](O)CC[C@]4(C)C2CC[C@]3(C)[C@H]1c1ccc(=O)oc1 (stereo not given in full)
(6) C[C@@H]1CNC(=O)c2c(C(=O)Nc3cccc(Cl)c3)ncn21
(7) Cc1ccc(-c2cc(-c3ccc(C)cc3)[n+](-c3ccc(C(=O)O)cc3)c(-c3ccc(C)cc3)c2)cc1
(8) Cc1ccc(C[n+]2c(-c3ccc(C)cc3)cc(-c3ccc(C)cc3)cc2-c2ccc(C)cc2)cc1
(9) Fc1cccc(-c2ccc3c(c2)CN(c2cccc(Cl)c2)Cc2cnnn2-3)c1
(10) CC(C)c1oc(=O)cc2c1[C@@H](O)[C@H]1OC(=O)[C@@]3(C)CC[C@@H](O)[C@@]2(C)C13 (stereo not given in full)

| assay / entry | 1 | 2 | 3 | 4 | 5 | 6 | 7 | 8 | 9 | 10 |
| --- | --- | --- | --- | --- | --- | --- | --- | --- | --- | --- |
| Nrf2 block | 9.3% | 5.8µM* | 20.6µM* | ? | 0.058µM* | / | 9.1% | 5.17µM* | / | 18.4µM* |
| ClpP mod | 0.0% | 0.9% | -1.3% | -1.1% | -1.9% | 3.0% | 4.2% | 4.4% | 31.6µM* | 0.7% |
| A549 tox | -5.7% | 10.3µM* | ? | -1.2% | ? | / | 0.6% | 18.4µM* | / | ? |
| IL2 activator | 0.2 | -4.0 | -0.8 | / | 0.2 | -3.0 | 2.2 | -0.3 | -0.1 | -0.2 |
| Nrf2 activator | ? | -2.8% | -3.4% | 0.8% | -4.8% | 5.8% | 1.3% | -3.5% | 26.8% | -3.2% |
| miR-21 FLuc | ? | / | ? | ? | / | / | / | / | / | 12.2% |

(11) CC(C)c1oc(=O)cc2c1[C@@H](O)[C@H]1OC(=O)[C@@]3(C)C[C@@H](O)[C@@H](O)[C@@]2(C)C13 (stereo not given in full)
(12) COc1ccc(NC(=O)CCOc2cc(C)ccc2C)cc1S(=O)(=O)N1CCCCC1
(13) COc1ccc(-n2c(=S)[nH]c3c(sc(=S)n3-c3ccccc3)c2=O)c(OC)c1
(14) COc1ccc(-n2c(=O)[nH]c3ccccc3c2=O)c(OC)c1
(15) COc1ccc(N2CCN(CCCNC(=O)c3cnn(-c4ccc(F)cc4)c3-n3cccc3)CC2)cc1
(16) CCN(CC)C(=O)c1ccc(NC(=O)CCn2nc(-c3ccc(Cl)cc3)c3ccccc3c2=O)cc1
(17) CCOc1ccccc1-n1c(O)c(C=NCCCN(CC)CC)c(=O)[nH]c1=O
(18) ClCCN(CCCl)/C(=C\c1ccccc1)c1ccnc2ccccc12
(19) CC(C)(C)n1ncc2c(=O)n(Cc3cccc(Cn4cnc5c(cnn5C(C)(C)C)c4=O)c3F)cnc21
(20) CC(C)Cn1c(O)c(N=NC(=O)c2cccc(S(=O)(=O)N3CCCCC3)c2)c2ccccc21

| assay / entry | 11 | 12 | 13 | 14 | 15 | 16 | 17 | 18 | 19 | 20 |
| --- | --- | --- | --- | --- | --- | --- | --- | --- | --- | --- |
| Nrf2 block | 18.4µM* | ? | -1.0% | 0.8% | ? | 25.9µM* | -0.5% | / | 5.17µM* | 20.6µM* |
| ClpP mod | -0.6% | 0.6% | 11.2µM* | -6.6% | -7.5% | -3.0% | 31.6µM* | -0.3% | / | -1.2% |
| A549 tox | ? | -27.6% | 0.7% | -10.9% | 0.7% | -15.4% | -3.6% | / | ? | ? |
| IL2 activator | -0.9 | -1.1 | 2.9 | -0.9 | / | / | 0.0 | / | -0.5 | 0.9 |
| Nrf2 activator | -2.4% | 2.4% | -0.7% | -0.3% | 3.5% | -0.6% | -0.3% | / | 3.2% | 2.4% |
| miR-21 FLuc | 28.2% | / | -1.6% | 1.4% | ? | ? | 0.6% | / | / | -0.9% |

The list goes on; it opens with the 3 that closed the last part.
(18) ClCCN(CCCl)/C(=C\c1ccccc1)c1ccnc2ccccc12
(19) CC(C)(C)n1ncc2c(=O)n(Cc3cccc(Cn4cnc5c(cnn5C(C)(C)C)c4=O)c3F)cnc21
(20) CC(C)Cn1c(O)c(N=NC(=O)c2cccc(S(=O)(=O)N3CCCCC3)c2)c2ccccc21
(21) CCOc1ccc(CCNC(=O)c2cc3c(-c4cccc(OC)c4)nn(C)c3s2)cc1OCC
(22) CCOc1cc(CNCCc2cccc(F)c2)ccc1OC
(23) CCOC(=O)c1cc(-c2ccccc2)n(CCCC(=O)Nc2ccc(C)c(C)c2)c1C
(24) O=C(Nc1ccc2nc(SCC(=O)N3CCCc4ccccc43)sc2c1)c1cccc(F)c1
(25) COC(=O)C(NC(C)=O)(Nc1nc2c(C)cc(C)cc2s1)C(F)(F)F (stereo not given)
(26) Oc1ccccc1-[n+]1c(-c2ccccc2)cc(-c2ccccc2)cc1-c1ccccc1
(27) COc1ccc(-[n+]2c(-c3ccccc3)cc(-c3ccc(C)cc3)cc2-c2ccccc2)cc1
(28) Cc1ccccc1-[n+]1c(-c2ccccc2)cc(-c2ccccc2)cc1-c1ccccc1
(29) CC(C)(C)OC(=O)N(CCc1ccccc1)Cc1ccc(OCc2cccc(NC(=O)c3ccccc3)c2)cc1
(30) COc1cc(-c2nc3ccc(Cl)cn3c2Nc2ccc3c(c2)OCCO3)ccc1O

| assay / entry | 18 | 19 | 20 | 21 | 22 | 23 | 24 | 25 | 26 | 27 | 28 | 29 | 30 |
| --- | --- | --- | --- | --- | --- | --- | --- | --- | --- | --- | --- | --- | --- |
| Nrf2 block | / | 5.17µM* | 20.6µM* | 18.4µM* | -2.6% | / | ? | ? | -0.7% | 20.6µM* | 11.6µM* | -9.5% | ? |
| ClpP mod | -0.3% | / | -1.2% | 3.9% | / | -17.1% | 12.6µM* | 1.6% | 1.9% | / | -26.9% | ? | ? |
| A549 tox | / | ? | ? | -8.2% | -3.7% | -11.4% | -1.7% | ? | -7.3% | ? | ? | -1.7% | -18.0% |
| IL2 activator | / | -0.5 | 0.9 | / | -0.4 | / | / | -0.4 | 0.2 | -0.5 | -0.8 | -0.8 | / |
| Nrf2 activator | / | 3.2% | 2.4% | -0.8% | 0.0% | 0.0% | 0.8% | -0.5% | 5.3% | 0.2% | -1.1% | 1.3% | 20.4% |
| miR-21 FLuc | / | / | -0.9% | 28.7% | -9.1% | ? | 29.9% | 19.6% | / | ? | / | / | 6.4% |

(31) Fc1ccc(-c2nc3c(-c4ccc(F)cc4)cnn3cc2CCN2CCOCC2)cc1
(32) CN(C)c1ccc(/C=C/[N+](=O)[O-])cc1
(33) C/C(=C\c1ccc(N(C)C)cc1)[N+](=O)[O-]
(34) CN(C)c1ccc(C(=O)c2ccc(N(C)C)cc2)cc1
(35) COc1ccccc1NC(=O)c1oc2ccccc2c1NC(=O)COc1cccc(C)c1
(36) CC(=O)O[C@H]1C[C@@H]2OC3C=C(C)CCC3(C)[C@@]1(C)[C@@]21CO1 (stereo not given in full)
(37) O=C(CN1CCN(S(=O)(=O)c2cc(Br)ccc2Br)CC1)NCc1ccccc1Cl
(38) COC(=O)C(O)(c1ccc(NC(=S)NC(=O)c2ccccc2)cc1)C(F)(F)F (stereo not given)
(39) CC(C)CCOP(=O)(c1ccc(N(C)C)cc1)C(O)c1ccc(Cl)cc1Cl (stereo not given)

| assay / entry | 31 | 32 | 33 | 34 | 35 | 36 | 37 | 38 | 39 |
| --- | --- | --- | --- | --- | --- | --- | --- | --- | --- |
| Nrf2 block | ? | ? | 23.1µM* | ? | -5.8% | 6.51µM* | ? | 16.4µM* | ? |
| ClpP mod | -1.3% | / | 0.2% | -3.5% | 17.6% | -3.1% | -2.9% | 0.5% | / |
| A549 tox | -0.1% | 0.5% | ? | -25.5% | 4.7% | / | -14.6% | -9.4%[1.84 µM] | ? |
| IL2 activator | 0.1 | 97.2* | -5.0 | -1.1 | / | -6.0 | -3.9 | -1.5 | -0.9 |
| Nrf2 activator | 4.0% | 0.5% | ? | -0.6% | 0.7% | -2.0% | 2.8% | 5.7% | 0.3% |
| miR-21 FLuc | 1.7% | -1.4% | ? | -18.0% | -0.7% | / | / | -20.8% | 27.7% |

Compound activity from PubChem BioAssay.
